Measurements published in ChEMBL document CHEMBL4138208, “Targeting tubulin polymerization by novel 7-aryl-pyrroloquinolinones: Synthesis, biological activity and SARs” (Eur J Med Chem, 2018).

Tests used:
[1] = Inhibition of bovine brain tubulin polymerization preincubated for 15 mins followed by GTP addition measured after 20 mins by spectrophotometric analysis; parameters: species or system Bos taurus
[2] = test system: Jurkat; test: Growth inhibition of human Jurkat cells after 72 hrs by MTT assay; assay type: functional
Method in brief: (§1)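 Cells seeded at 8 × 10^3 per well and preincubated 18 h at 37 °C, 5% CO2. Leukemia lines were in RPMI-1640 and adherent lines in DMEM, each with 10% FBS plus penicillin/streptomycin. Medium replaced with compound at varying concentrations, in triplicate, for 72 h.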

[3] = test system: HT-29; test: Growth inhibition of human HT-29 cells after 72 hrs by MTT assay; assay type: functional; details: HT-29, 72 h; method in brief: as §1
[4] = test system: HeLa; test: Growth inhibition of human HeLa cells after 72 hrs by MTT assay; assay type: functional; method in brief: as §1
[5] = test system: RS4-11; test: Growth inhibition of human RS4:11 cells after 72 hrs by MTT assay; assay type: functional; details: RS4-11, 72 h; method in brief: as §1
[6] = test system: Kasumi 1; test: Growth inhibition of human Kasumi-1 cells after 72 hrs by MTT assay; assay type: functional; details: Kasumi 1, 72 h; method in brief: as §1
[7] = test system: A549; test: Growth inhibition of human A549 cells after 72 hrs by MTT assay; assay type: functional; details: A549, 72 h; method in brief: as §1
[8] = test system: MDA-MB-231; test: Growth inhibition of human MDA-MB-231 cells after 72 hrs by MTT assay; assay type: functional; details: MDA-MB-231, 72 h; method in brief: as §1
[9] = test system: PBL; details: human, 72 h
[10] = test system: PBL; details: human, 72 h; remark: listed apart in the source

Question: Which IC50 [1] does the source give for `CCn1ccc2ccc3[nH]c(-c4ccccc4)cc(=O)c3c21` here?
Answer: Its IC50 is 6200 nM.

Question: With `CCn1ccc2c3c(=O)cc(-c4ccc5c(c4)CCCC5)[nH]c3ccc21` as the compound, how does the GI50 [2] read?
Answer: Its GI50 is 3 nM.

Question: What about the GI50 [3] of the same compound?
Answer: The GI50 was 4.7 nM.

Question: What about the GI50 [4] of the same compound?
Answer: The GI50 was 34 nM.

Question: And the GI50 [5]?
Answer: Its GI50 is 7 nM.

Question: And the GI50 [6]?
Answer: The GI50 was 15 nM.

Question: And the GI50 [7]?
Answer: The GI50 was 45 nM.

Question: What about the GI50 [8] of the same compound?
Answer: Its GI50 is 591 nM.

Question: For `CCn1ccc2c3c(=O)cc(-c4ccc5c(c4)OCO5)[nH]c3ccc21`, which GI50 [2] is on record?
Answer: Its GI50 is 0.1 nM.

Question: And the GI50 [3]?
Answer: The GI50 was 0.6 nM.

Question: And the GI50 [4]?
Answer: The GI50 was 4.2 nM.

Question: And the GI50 [9]?
Answer: Its GI50 is 45300 nM.

Question: And the GI50 [5]?
Answer: The GI50 was 0.2 nM.

Question: What about the GI50 [6] of the same compound?
Answer: Its GI50 is 0.3 nM.

Question: And the GI50 [10]?
Answer: Its GI50 is 23000 nM.

Question: And the GI50 [7]?
Answer: The GI50 was 1.1 nM.

Question: And the GI50 [8]?
Answer: The GI50 was 123 nM.

Question: For `CCn1ccc2cc3c(=O)cc(-c4ccccc4)[nH]c3cc21`, which IC50 [1] is on record?
Answer: Its IC50 is 6200 nM.

Question: Which results are given for `CCn1ccc2c3c(=O)cc(-c4cccc5ccccc45)[nH]c3ccc21`?
Answer: GI50 [2]: 0.7 nM; GI50 [3]: 1.9 nM; GI50 [4]: 0.5 nM; GI50 [9]: > 100000 nM; GI50 [5]: 0.5 nM; GI50 [6]: 0.4 nM; GI50 [10]: 25700 nM; GI50 [7]: 4.2 nM; GI50 [8]: 17.1 nM
